Values of other authors as cited in patent US20090220516A1, “Neuroprotection of retinal ganglion cells” (priority 2005, published 2009).

Protein sequences, listed by entry. Tags and fused reporters are not part of them. Lines headed by an entry give the natural chain unless they say otherwise; changes in a name come on top.
UniProt P25099, whole entry: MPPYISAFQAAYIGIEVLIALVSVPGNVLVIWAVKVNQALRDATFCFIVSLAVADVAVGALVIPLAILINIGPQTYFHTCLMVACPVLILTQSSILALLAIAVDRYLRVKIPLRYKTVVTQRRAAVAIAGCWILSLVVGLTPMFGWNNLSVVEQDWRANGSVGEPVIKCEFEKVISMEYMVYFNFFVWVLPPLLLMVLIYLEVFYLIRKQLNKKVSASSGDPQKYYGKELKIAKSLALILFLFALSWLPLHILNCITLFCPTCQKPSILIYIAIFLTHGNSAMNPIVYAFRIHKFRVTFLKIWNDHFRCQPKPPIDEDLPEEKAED
UniProt P30543, whole entry: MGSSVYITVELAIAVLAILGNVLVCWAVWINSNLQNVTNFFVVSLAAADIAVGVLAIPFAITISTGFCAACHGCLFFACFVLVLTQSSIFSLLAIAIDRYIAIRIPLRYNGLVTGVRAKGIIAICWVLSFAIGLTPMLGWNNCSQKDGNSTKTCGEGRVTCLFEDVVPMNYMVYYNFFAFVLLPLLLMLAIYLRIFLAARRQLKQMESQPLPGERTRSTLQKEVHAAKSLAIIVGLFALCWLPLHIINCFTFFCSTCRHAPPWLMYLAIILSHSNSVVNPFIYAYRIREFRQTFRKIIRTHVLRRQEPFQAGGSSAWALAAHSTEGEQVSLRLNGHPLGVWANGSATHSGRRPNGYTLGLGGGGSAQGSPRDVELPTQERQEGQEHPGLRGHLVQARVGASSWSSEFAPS

Tests used:
A1 receptor = A1 receptor (Rattus norvegicus, UniProt P25099); conditions: read-out: binding displacement; cited from earlier work
A2A receptor = A2A receptor (Rattus norvegicus, UniProt P30543); conditions: read-out: binding displacement; cited from earlier work

Row | Compound | Ki (A1 receptor) | Ki (A2A receptor)
1 | CNC(=O)[C@H]1O[C@@H](n2cnc3c(NCc4cccc(I)c4)ncnc32)[C@H](O)[C@@H]1O [IB-MECA] | 54 nM | 56 nM
2 | CNC(=O)C1OC(n2cnc3c(NCc4cccc(I)c4)nc(Cl)nc32)C(O)C1O (stereo not shown) [CI-IB-MECA, 2-chloro-N6-(3-iodobenzyl)-adenosine-5-N-methyluronamide] | 820 nM | 420 nM
